The source of these data is US4681754A, “Counteracting cyclosporin organ toxicity” (Sandoz Ltd., priority 1984, dated 1987).

The subject of this series is SH-rat.
[1] abbreviates: SH-rat blood serum, group 1 vs control group 3.
Where [2] appears, read: SH-rat, 28 days, group 1 vs control group 3, group 2 vs group 1.
Setting [3] is: SH-rat, measured 3-4 hours after Cyclosporine, group 1 vs control group 3, group 2 vs group 1.

In the case of Cyclosporine, under setting [1], the BUN entry is “increase” and the creatinine result is reported as “without significant change”. In addition, the “Na+ and K+ quotient” value (SH-rat urine, group 1 vs control group 3) was “increase”. Moreover, the “PRA (Plasma Renin Activity)” value (SH-rat, 3rd week blood sample, group 1 vs control group 3, group 2 vs group 1) is listed as “significant increase”. Moreover, under setting [2], the body weight entry is reported as “reduction of body weight” and the water consumption entry is recorded as “slight initial increase in water consumption followed by subsequent reduction during the course of the trial”. Further, under setting [3], the blood pressure entry is “significant increase” and the heart frequency result was “significant increase”. For the same substance, the “rats surviving to the end of the trial” value (male SH-rats, 28 days, Cyclosporine 20 mg/kg/day p.o., 6 animals per group) is 1 out of 6.
